These compounds were tested against full-length human BTK (Homo sapiens (Human), UniProt Q06187) (assay: BTK IC50 enzyme assay (microfluidic off-chip mobility shift kinase assay)). Conditions: incubated for 90 min. at 27 C; read-out: Time Dependent BTK Enzyme Assay IC50.
Assay type: biochemical
Description: The following describes a microfluidic, off-chip mobility shift kinase assay used to measure inherent potency of compounds against BTK enzyme. Compounds described by embodiments of the present invention were assayed using this protocol and the data from the same is recorded in Table 2 within the column labeled: “Time Dependent BTK Enzyme Assay IC50”.
Stopped reactions were monitored at −2 PSI, −3000 V/−700 V in a LabChip 3000 plate reader from Caliper Life Sciences, a PerkinElmer Company (Hopkinton, Mass.), and the activity was measured by off-chip mobility shift assay measuring the charge/mass difference between substrate and product resulting from peptide phosphorylation. IC50 and efficacy were determined by plotting log [Inhibitor] vs. % Activity in GeneData Screener (Basel, Switzerland). […] I<1 uM and II>1 uM.

Amino acid sequences for entries named in this document (tags omitted). A change or cut given only in a name is not applied to a line headed by its entry.
UniProt Q06187: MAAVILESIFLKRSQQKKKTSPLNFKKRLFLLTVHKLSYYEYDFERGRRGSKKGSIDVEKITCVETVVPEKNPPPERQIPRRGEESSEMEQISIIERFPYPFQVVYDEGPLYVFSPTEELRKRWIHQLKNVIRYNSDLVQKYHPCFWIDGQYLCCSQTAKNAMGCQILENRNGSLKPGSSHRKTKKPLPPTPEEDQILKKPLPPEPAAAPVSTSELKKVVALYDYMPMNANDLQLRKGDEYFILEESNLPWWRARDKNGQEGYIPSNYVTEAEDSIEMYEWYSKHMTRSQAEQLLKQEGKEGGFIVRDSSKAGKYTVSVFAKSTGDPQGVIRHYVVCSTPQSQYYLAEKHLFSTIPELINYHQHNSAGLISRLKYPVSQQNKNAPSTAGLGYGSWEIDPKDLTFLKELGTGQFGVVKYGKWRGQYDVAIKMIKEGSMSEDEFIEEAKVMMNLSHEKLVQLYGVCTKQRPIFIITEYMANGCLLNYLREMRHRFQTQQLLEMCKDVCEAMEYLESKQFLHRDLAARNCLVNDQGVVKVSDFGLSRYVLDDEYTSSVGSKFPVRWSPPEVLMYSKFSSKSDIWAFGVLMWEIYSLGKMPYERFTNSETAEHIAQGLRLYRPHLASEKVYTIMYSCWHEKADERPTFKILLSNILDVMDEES

`C=CC(=O)N[C@@H]1CCC[C@@H](Nc2ncnc(N)c2-c2ccc(Oc3ccccc3)cc2)C1` [A175, N-((1R,3R)-3-((6-amino-5-(4-phenoxyphenyl)pyrimidin-4-yl)amino)cyclohexyl)acrylamide] and `C=CC(=O)N[C@@H]1CCC[C@H](Nc2ncnc(N)c2-c2ccc(Oc3ccccc3)cc2)C1` (relative stereo) [A51, N-(cis-3-((6-amino-5-(4-phenoxyphenyl)pyrimidin-4-yl)amino)cyclohexyl)acrylamide] cannot be ordered by IC50: less than 1000 nM for the first, less than 100 nM for the second.

`C=CC(=O)N[C@H]1CC[C@@H](Nc2ncnc(N)c2-c2ccc(Oc3ccccc3)cc2)CC1` [A266, N-((1s,4s)-4-((6-amino-5-(4-phenoxyphenyl)pyrimidin-4-yl)amino)cyclohexyl)acrylamide] and `C=CC(=O)N[C@H]1CC[C@H](Nc2ncnc(N)c2-c2ccc(Oc3ccccc3)cc2)CC1` [A276, N-((1 r,4r)-4-((6-amino-5-(4-phenoxyphenyl)pyrimidin-4-yl)amino)cyclohexyl)acrylamide] cannot be ordered by IC50: less than 100 nM for the first, less than 100 nM for the second.

`C=CS(=O)(=O)N1CCC(CNc2ncnc(N)c2-c2ccc(Oc3ccccc3)cc2)CC1` [A10, 5-(4-phenoxyphenyl)-N4-((1-(vinylsulfonyl)piperidin-4-yl)methyl)pyrimidine-4,6-diamine] and `Nc1ncnc(NCC2CCN(C(=O)CCl)CC2)c1-c1ccc(Oc2ccccc2)cc1` [A45, 1-(4-(((6-amino-5-(4-phenoxyphenyl)pyrimidin-4-yl)amino)methyl)piperidin-1-yl)-2-chloroethanone] cannot be ordered by IC50: less than 100 nM for the first, less than 100 nM for the second.

`C=CC(=O)N1CCC(O)(CNc2ncnc(N)c2-c2ccc(Oc3ccccc3)cc2)CC1` [A37, 1-(4-(((6-amino-5-(4-phenoxyphenyl)pyrimidin-4-yl)amino)methyl)-4-hydroxypiperidin-1-yl)prop-2-en-1-one] and `C=CC(=O)N1CC[C@H](Nc2ncnc(N)c2-c2ccc(Oc3ccccc3)cc2)C1` [A148, (S)-1-(3-((6-amino-5-(4-phenoxyphenyl)pyrimidin-4-yl)amino)pyrrolidin-1-yl)prop-2-en-1-one] cannot be ordered by IC50: less than 100 nM for the first, less than 1000 nM for the second.

`C=CC(=O)N1CCC[C@@H](Nc2ncnc(N)c2-c2ccc(Oc3ccccc3)cc2)C1` [A247, (R)-1-(3-((6-amino-5-(4-phenoxyphenyl)pyrimidin-4-yl)amino)piperidin-1-yl)prop-2-en-1-one] and `C=CC(=O)N1CCC[C@H](Nc2ncnc(N)c2-c2ccc(Oc3ccccc3)cc2)C1` [A275, (S)-1-(3-((6-amino-5-(4-phenoxyphenyl)pyrimidin-4-yl)amino)piperidin-1-yl)prop-2-en-1-one] cannot be ordered by IC50: less than 100 nM for the first, less than 100 nM for the second.

`C=CC(=O)N[C@H]1CCC[C@H](Nc2ncnc(N)c2-c2ccc(Oc3ccccc3)cc2)C1` [A176, N-((1S,3S)-3-((6-amino-5-(4-phenoxyphenyl)pyrimidin-4-yl)amino)cyclohexyl)acrylamide] and `C=CC(=O)N[C@@H]1CCC[C@H](Nc2ncnc(N)c2-c2ccc(Oc3ccccc3)cc2)C1` (relative stereo) [A174, N-((1R,3S)-3-((6-amino-5-(4-phenoxyphenyl)pyrimidin-4-yl)amino)cyclohexyl)acrylamide] cannot be ordered by IC50: greater than 1000 nM for the first, greater than 1000 nM for the second.

`C=CC(=O)N1CC2(CC(Nc3ncnc(N)c3-c3ccc(Oc4ccccc4)cc3)C2)C1` [A124, 1-(6-((6-amino-5-(4-phenoxyphenyl)pyrimidin-4-yl)amino)-2-azaspiro[3.3]heptan-2-yl)prop-2-en-1-one] and `C=CC(=O)N1CC[C@@H](Nc2ncnc(N)c2-c2ccc(Oc3ccccc3)cc2)C1` [A1, (R)-1-(3-((6-amino-5-(4-phenoxyphenyl)pyrimidin-4-yl)amino)pyrrolidin-1-yl)prop-2-en-1-one] cannot be ordered by IC50: less than 100 nM for the first, less than 100 nM for the second.

`C=CC(=O)Nc1cccc(Oc2ncncc2-c2ccc(Oc3ccccc3)cc2)c1` [A255, N-(3-((5-(4-phenoxyphenyl)pyrimidin-4-yl)oxy)phenyl)acrylamide] and `C=CC(=O)N[C@@H]1CC[C@H](Nc2ncnc(N)c2-c2ccc(Oc3ccccc3)cc2)C1` (relative stereo) [A181, N-(cis-3-((6-amino-5-(4-phenoxyphenyl)pyrimidin-4-yl)amino)cyclopentyl)acrylamide] cannot be ordered by IC50: less than 100 nM for the first, less than 100 nM for the second.

`C=CC(=O)N[C@H]1CC[C@H](Nc2ncnc(N)c2-c2ccc(Oc3ccccc3)cc2)C1` [A49, N-((1S,3S)-3-((6-amino-5-(4-phenoxyphenyl)pyrimidin-4-yl)amino)cyclopentyl)acrylamide] and `C=CC(=O)N[C@H]1CCC[C@@H](Nc2ncnc(N)c2-c2ccc(Oc3ccccc3)cc2)C1` [A173, N-((1S,3R)-3-((6-amino-5-(4-phenoxyphenyl)pyrimidin-4-yl)amino)cyclohexyl)acrylamide] cannot be ordered by IC50: less than 1000 nM for the first, less than 100 nM for the second.

`C=CC(=O)N1CCC(CNc2ncnc(N)c2-c2ccc(Oc3cccc(F)c3)cc2)CC1` [A34, 1-(4-(((6-amino-5-(4-(3-fluorophenoxy)phenyl)pyrimidin-4-yl)amino)methyl)piperidin-1-yl)prop-2-en-1-one] and `C=CC(=O)N1CCCC(Nc2ncnc(N)c2-c2ccc(Oc3ccccc3)cc2)C1` (stereo not shown) [A253, 1-(3-((6-amino-5-(4-phenoxyphenyl)pyrimidin-4-yl)amino)piperidin-1-yl)prop-2-en-1-one] cannot be ordered by IC50: less than 100 nM for the first, less than 100 nM for the second.

What follows are compounds tested against BTK (Homo sapiens (Human), UniProt Q06187) (assay: Time Dependent Human Whole Blood IC50 assay). Conditions: read-out: Time Dependent Human Whole Blood BTK Enzyme Assay IC50.
Assay type: cell-based
Description: Compounds described by embodiments of the present invention were assayed using a human whole blood assay. The data from the same is recorded in Table 2 within the column labeled: “Time Dependent Human Whole Blood BTK Enzyme Assay IC50”.

Going from `C=CC(=O)N1CCC(O)(CNc2ncnc(N)c2-c2ccc(Oc3ccccc3)cc2)CC1` [A37, 1-(4-(((6-amino-5-(4-phenoxyphenyl)pyrimidin-4-yl)amino)methyl)-4-hydroxypiperidin-1-yl)prop-2-en-1-one] to `C=CC(=O)N[C@H]1CC[C@H](Nc2ncnc(N)c2-c2ccc(Oc3ccccc3)cc2)C1` [A49, N-((1S,3S)-3-((6-amino-5-(4-phenoxyphenyl)pyrimidin-4-yl)amino)cyclopentyl)acrylamide], the IC50 rises from less than 1000 nM to greater than 1000 nM. The first is the more potent here.

From US9580449B2, “Compositions and methods for the production of pyrimidine and pyridine compounds with BTK inhibitory activity” (Merck Patent GmbH, priority 2011, dated 2017)
